Results from PubChem BioAssay (NCATS).
Values joined by “and” are separate entries in the source; they are usually repeats but may differ in a detail not shown here. Equal values may be shown once. This is a selection; strong and weak results do not stand in their true shares. Inconclusive results are not listed. Active and inactive are the calls of the source. Unless noted, calls follow the shape of the dose curve; as a rule, active = well fitted curve in the direction sought with a large enough effect; inconclusive = small, poorly fitted or top-dose-only effect, or another doubt; inactive = no such curve, though single readings can be large; an effect the other way counts as inactive or inconclusive.

Key:
[1] = qHTS of pediatric cancer cell lines to identify multiple opportunities for drug repurposing: Primary screen for TC32 cells (AID 1347089); settings: TC32 Ewing sarcoma viability, CellTiter-Glo luminescence, 48 h; at 92.2 µM (top of the series) unless noted; also: % is scaled to controls: 0 for no effect and ±100 for the full control effect; nearly all actives have a fitted effect of over 60% in size
Source text: Drug repurposing or repositioning has been offered as a strategy for drug development in oncology programs. This approach has special potential for childhood cancers and other rare or orphan diseases, where the expected return on new drug development has been a disincentive to pharmaceuticals.
In this project we exploit the poly-pharmacology of drugs to discover new indications via phenotypic screening of a panel of 19 well-characterized cell lines derived from solid tumors seen in children and adolescents. The goal is to identify approved drugs with previously unrecognized anticancer properties that has the potential to reveal new mechanisms and biological processes involved in carcinogenesis or drug resistance. We employed a titration-based paradigm (quantitative high-throughput screening or qHTS), where all compounds were tested at multiple concentrations for their effect on cell viability. Concentration-response curves (CRCs) were derived directly from the primary screen, and both potency and efficacy values were used to identify compounds with robust bioactivity profiles. We screened the NIH Chemical Genomics Center (NCGC) Pharmaceutical Collection (NPC) and Mechanism Interrogation Plate (MIPE) small molecule collections of approved and investigational compounds against these cell lines; and measured metabolically active cells after 48 hours of compound treatment as a proxy for cell viability.
Assay Submitter: Nathalia J. Martinez, National Center for Advancing Translational Sciences, National Institutes of Health, Rockville, MD, USA; email: natalia.martinez@nih.gov
[1] Shen, M et al. Quantitative high-throughput phenotypic screening of pediatric cancer cell lines identifies multiple opportunities for drug repurposing. Oncotarget 2017 Dec 19;9(4):4758-4772. PMID 29435139. […]
Cells were assayed in growth media at a density of 500-1,000 cells/well. […] After a 15min incubation at room temperature, samples were analyzed for luminescence intensity using a ViewLux High-throughput CCD imager equipped with clear filters.

[2] = qHTS of pediatric cancer cell lines to identify multiple opportunities for drug repurposing: Primary screen for DAOY cells (AID 1347090); settings: DAOY medulloblastoma viability, CellTiter-Glo luminescence, 48 h; at 92.7 µM (top of the series);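 also: plate controls were DMSO for no effect and bortezomib for full effect; nearly all actives have a fitted effect of over 55% in size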
Outline: (§1)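 Eight- or eleven-point concentration series, 48 h treatment at 37 degrees C in growth media; readout CellTiter-Glo luminescence. Potency and efficacy were taken from the concentration-response curves.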

[3] = qHTS of pediatric cancer cell lines to identify multiple opportunities for drug repurposing: Primary screen for SJ-GBM2 cells (AID 1347091); settings: SJ-GBM2 viability, CellTiter-Glo luminescence, 48 h; at 92.7 µM (top of the series);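 also: plate controls were DMSO neutral control for no effect and bortezomib for full effect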
Outline: as §1

[4] = qHTS of pediatric cancer cell lines to identify multiple opportunities for drug repurposing: Primary screen for BT-37 cells (AID 1347094); settings: BT-37 viability, CellTiter-Glo luminescence, 48 h; at 116 µM (top of the series) unless noted;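 also: plate controls were DMSO for no effect and bortezomib for full effect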
Outline: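 Viability was measured as metabolically active cells after 48 hours of treatment, read by CellTiter-Glo luminescence. Compounds were tested at multiple final concentrations, giving concentration-response curves.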

[5] = qHTS of pediatric cancer cell lines to identify multiple opportunities for drug repurposing: Primary screen for NB-EBc1 cells (AID 1347095); settings: NB-EBc1 neuroblastoma viability, CellTiter-Glo luminescence, 48 h; at 92.7 µM (top of the series);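 also: plate controls were DMSO neutral control for no effect and bortezomib for full effect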
[6] = qHTS of pediatric cancer cell lines to identify multiple opportunities for drug repurposing: Primary screen for U-2 OS cells (AID 1347096); settings: U-2 OS viability, CellTiter-Glo luminescence, 48 h; at 92.7 µM (top of the series) unless noted;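 also: plate controls were DMSO wells for no effect and bortezomib positive control wells for full effect; nearly all actives have a fitted effect of over 50% in size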
Outline: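 Cells (500-1,000/well) in growth media were settled 5 h at 37 degrees C, then given compounds for 48 h. Viability was read as CellTiter-Glo luminescence. Primary runs used MIPE at 11 points (0.78 nM-46 µM) and NPC at 8 points (0.59 nM-46 µM); follow-ups used 11 points.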

[7] = qHTS of pediatric cancer cell lines to identify multiple opportunities for drug repurposing: Primary screen for Saos-2 cells (AID 1347097); settings: Saos-2 viability, CellTiter-Glo ATP luminescence, 48 h; at 92.7 µM (top of the series); also: % is scaled to controls: 0 for no effect and ±100 for the full control effect; nearly all actives have a fitted effect of over 40% in size
Source text: Drug repurposing or repositioning has been offered as a strategy for drug development in oncology programs. This approach has special potential for childhood cancers and other rare or orphan diseases, where the expected return on new drug development has been a disincentive to pharmaceuticals. […] In this project we exploit the poly-pharmacology of drugs to discover new indications via phenotypic screening of a panel of 19 well-characterized cell lines derived from solid tumors seen in children and adolescents. […] We employed a titration-based paradigm (quantitative high-throughput screening or qHTS), where all compounds were tested at multiple concentrations for their effect on cell viability. […] We screened the NIH Chemical Genomics Center (NCGC) Pharmaceutical Collection (NPC) and Mechanism Interrogation Plate (MIPE) small molecule collections of approved and investigational compounds against these cell lines; and measured metabolically active cells after 48 hours of compound treatment as a proxy for cell viability. […] Assay Submitter: Nathalia J. Martinez, National Center for Advancing Translational Sciences, National Institutes of Health, Rockville, MD, USA; email: natalia.martinez@nih.gov Shen, M et al. Quantitative high-throughput phenotypic screening of pediatric cancer cell lines identifies multiple opportunities for drug repurposing. […]

[8] = biological target: Nucleoprotein (Lymphocytic choriomeningitis virus (strain Armstrong)) (UniProt P09992); test: qHTS for Inhibitors of the Functional Ribonucleoprotein Complex (vRNP) of Lymphocytic Choriomeningitis Arenaviruses (LCMV): LCMV Primary Screen - GLuc reporter signal (AID 1347086; calls by dose curve; also: % is scaled to controls: 0 for no effect and ±100 for the full control effect; nearly all actives have a fitted effect of over 70% in size); settings: LCMV minigenome vRNP cell assay, Gaussia luciferase reporter; at 57.5 µM (top of the series) unless noted
[9] = qHTS of pediatric cancer cell lines to identify multiple opportunities for drug repurposing: Primary screen for A673 cells (AID 1347092); settings: A673 Ewing sarcoma viability, CellTiter-Glo ATP luminescence, 48 h; at 92.7 µM (top of the series); also: % is scaled to controls: 0 for no effect and ±100 for the full control effect; nearly all actives have a fitted effect of over 45% in size
Outline: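 A673 cells (500-1,000 cells/well in growth media) were pre-incubated 5 h at 37 degrees C, then exposed to compounds for 48 h. Viability was read as CellTiter-Glo luminescence; concentration-response curves came directly from the primary screen.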

[10] = qHTS of pediatric cancer cell lines to identify multiple opportunities for drug repurposing: Primary screen for SK-N-MC cells (AID 1347093); settings: SK-N-MC viability, CellTiter-Glo luminescence, 48 h; at 92.7 µM (top of the series);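 also: plate controls were DMSO neutral control for no effect and bortezomib for full effect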

CCC(=O)N(c1ccccc1)C1(COC)CCN(CCc2cccs2)CC1
inactive: activity change, negative = cytotoxic [1] -2.93% | activity change, negative = cytotoxic [2] -12.7% | activity change, negative = cytotoxic [3] -17.4% | activity change, negative = cytotoxic [4] -24.9% | activity change, negative = cytotoxic [5] -12.8% | activity change, negative = cytotoxic [6] -12.1% | activity change, negative = cytotoxic [7] -26.6%

CCC(=O)N(c1ccccc1)C1(COC)CCN(CCn2nnn(CC)c2=O)CC1
inactive: activity change, negative = inhibition [8] 25.2% [at 115 µM] | activity change, negative = cytotoxic [1] 3.51% | activity change, negative = cytotoxic [2] -1.84% | activity change, negative = cytotoxic [3] -1.35% | activity change, negative = cytotoxic [9] -13.1% | activity change, negative = cytotoxic [10] -1.19% | activity change, negative = cytotoxic [4] -0.0411% | activity change, negative = cytotoxic [5] -10.9% | activity change, negative = cytotoxic [6] -0.36% | activity change, negative = cytotoxic [7] -22.1%

CN(CCCl)CCCl
inactive: activity change, negative = inhibition [8] 6.46% and 24.8% | activity change, negative = cytotoxic [1] 0.236% [at 45.8 µM] and 3.11% [at 45.8 µM] | activity change, negative = cytotoxic [4] -16.8% [at 57.3 µM] | activity change, negative = cytotoxic [6] 9.24% [at 46 µM] and 5.64% [at 46 µM]
